# Data taken from PubChem BioAssay AID1499 (Sanford-Burnham Center for Chemical Genomics, 2009).
# Sequences of proteins named here, by UniProt entry; tags and fusion partners are left off.
# UniProt P05107, whole entry, looked up: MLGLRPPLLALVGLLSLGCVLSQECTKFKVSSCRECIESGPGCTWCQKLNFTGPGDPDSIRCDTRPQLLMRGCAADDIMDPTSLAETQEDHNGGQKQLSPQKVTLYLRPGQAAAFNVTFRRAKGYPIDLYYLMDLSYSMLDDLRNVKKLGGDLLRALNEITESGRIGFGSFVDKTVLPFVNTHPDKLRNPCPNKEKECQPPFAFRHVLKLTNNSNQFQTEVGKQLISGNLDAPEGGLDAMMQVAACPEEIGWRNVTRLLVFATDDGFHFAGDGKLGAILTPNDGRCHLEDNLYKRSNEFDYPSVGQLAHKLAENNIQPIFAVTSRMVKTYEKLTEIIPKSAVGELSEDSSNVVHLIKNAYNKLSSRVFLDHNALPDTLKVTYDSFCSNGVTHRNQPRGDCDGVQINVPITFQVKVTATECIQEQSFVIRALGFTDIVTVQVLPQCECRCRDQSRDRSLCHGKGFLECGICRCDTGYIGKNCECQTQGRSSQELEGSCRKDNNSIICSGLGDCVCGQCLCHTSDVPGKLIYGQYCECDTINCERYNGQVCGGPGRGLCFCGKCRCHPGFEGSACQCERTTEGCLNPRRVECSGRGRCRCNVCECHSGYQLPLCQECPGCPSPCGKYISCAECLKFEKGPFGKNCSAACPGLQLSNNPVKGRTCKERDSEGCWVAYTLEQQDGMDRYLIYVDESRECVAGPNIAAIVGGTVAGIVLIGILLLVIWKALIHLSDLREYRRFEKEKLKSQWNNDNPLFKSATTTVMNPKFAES
# Only a part is listed here, and it is no random draw. Activity calls are given as the source filed them.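 The calls were made as follows: active = 10 µM primary screen giving 50% or more activity, confirmed by 40% or more on retest at that dose; inactive = the rest.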
# Molecular target: Integrin beta-2 (Homo sapiens) + Integrin alpha-M (Homo sapiens) (UniProt P05107+P11215)
# Test: enhancers of CD11b/CD18 adhesion to fibrinogen, primary screen, K562 cells, luminescence (AID 1499)
# Settings: ATPlite luminescence, at 10 µM, active compounds read high
row,Structure (SMILES),activation
1,O=C(NCC1(N2CCOCC2)CCCCC1)c1cc(=O)[nH]c2ccccc12,inactive: -1.6%
2,N#CC1(Nc2ccccc2)CCN(CCc2ccccc2)CC1,inactive: 10.8%
3,COc1ccc(NC2CCN(CCc3ccccc3)CC2)c(OC)c1,inactive: -6.1%
4,O=C(OC1CN2CCC1CC2)C1c2ccccc2Oc2ccccc21 (stereo not given),inactive: 0.6%
5,O=C(NCC1(N2CCOCC2)CCCCC1)c1cc2ccccc2o1,inactive: 2.7%
6,CCC(CO)(C(=O)OC1CN2CCC1CC2)c1ccccc1 (stereo not given),inactive: -1%
7,CCOc1ncccc1C(=O)NCC1(N2CCOCC2)CCCCC1,inactive: -5%
8,Fc1ccccc1NC1CCN(Cc2ccccc2)CC1,inactive: -2.5%
9,c1ccc(CN2CCC(Nc3ccccc3)CC2)cc1,inactive: -0.8%
10,N/C(=N\O)c1c(N)no[n+]1[O-],inactive: -1%
